Assay results as given in US9649378B2, “Cancer methods” (priority 2010, dated 2017).

Test system: phospho-ERK
Test: EGF induced phospho-ERK activation in OPCML transfected (BKS2.1) and control (SKOBS-V1.2) cells
Settings: OPCML transfected versus control cells

Substance | OPCML mediated sensitization
trastuzumab: anti-HER2 antibody | Lesser sensitization than for lapatinib
cetuximab: inhibitor of EGFR | no sensitization
